Screening results deposited in PubChem by Broad Institute.
In the library only some 2.2% were active in any assay of this set; here they are far more common.
S100A4 MyoIIA = inhibitors of S100A4-myosin IIA peptide binding, primary screen, biochemical, fluorescence polarization, TAMRA-MyoIIA peptide. hit rate 0.14% among 360,000. Protein S100-A4 (Homo sapiens), P26447. inhibition, % at 10.7 µM;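 active = mean inhibition of at least 70% across replicates, with every replicate also reaching that level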
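Material: S100A4 monomer protein / Buffer or medium: 50 mM HEPES pH 7.2, 10 mM CaCl2, 100 mM KCl / Times: 5 min incubation before reading / Benchmarks: neutral control DMSO, positive control TFP / Reagent: labelled myosin peptide probe, 5 nM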
SIRT5 inh = SIRT5 desuccinylase inhibitors, primary screen, biochemical, fluorescence imaging, single point, set 5; Purified SirT5, succinyl-peptide AMC, trypsin-coupled fluorescence; hit rate 1.1% among 330,000; inhibition, % at 15 µM; AID 652115, 2013; in the data active = inhibition above about 15%
Yeast UUG start = alters start codon recognition fidelity in yeast; S. cerevisiae UUG-firefly luciferase reporter, luminescence/redox ratio; activity score, % at 18.7 µM; actives 0.13% (n = 350,000); AID 602363;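 active = replicate mean at a twofold rise or more, about +100% in these data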;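 also: firefly luciferase made from a UUG start codon reports start codon fidelity; reporter light over untreated wells divided by growth signal over untreated wells; some hits fall short of that in this replicate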
PDI inh = inhibitors of human PDI, primary screen, biochemical, turbidity, single point, plate reader. inhibition, % at 10 µM. PDI insulin aggregation turbidity, A650, 90 min. Protein disulfide-isomerase (Homo sapiens), P07237. hit rate 0.052% among 350,000;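 active = mean inhibition across replicates of 30% or more, whatever share of single replicates reach that level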
ERp5 inh = inhibitors of ERp5-driven insulin aggregation, primary screen, biochemical, turbidity, absorbance 650 nm, single point | Protein disulfide-isomerase A6 (Homo sapiens), Q15084 | 90 min | inhibition, % at 9.99 µM | hit rate 0.05% among 350,000;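 active = mean replicate inhibition above about 25%, with every replicate also reaching it, limit read from the data, passing the limit was not always enough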
FGF22 binding = binders of human FGF22 protein, primary screen, FGF22 synaptogenesis inhibitor project, biophysical, thermal shift, single point. recombinant FGF22 thermal shift, SYPRO orange fluorescence; percent of sucrose octasulfate shift, DMSO zero. activity (Tm shift, normalised), % at 9.99 µM. hit rate 1.5% among 340,000. AID 651658, 2012;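 active = mean Tm shift, scaled 0 neutral to 100 positive control, at about 1.3% or above, every replicate too, limit read from the data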
Large screens that a line does not name were inactive.

The chains behind the UniProt entries cited, without tags or fusion partners.
Protein disulfide-isomerase A6 (Homo sapiens), Q15084, UniProt Q15084, whole entry, looked up: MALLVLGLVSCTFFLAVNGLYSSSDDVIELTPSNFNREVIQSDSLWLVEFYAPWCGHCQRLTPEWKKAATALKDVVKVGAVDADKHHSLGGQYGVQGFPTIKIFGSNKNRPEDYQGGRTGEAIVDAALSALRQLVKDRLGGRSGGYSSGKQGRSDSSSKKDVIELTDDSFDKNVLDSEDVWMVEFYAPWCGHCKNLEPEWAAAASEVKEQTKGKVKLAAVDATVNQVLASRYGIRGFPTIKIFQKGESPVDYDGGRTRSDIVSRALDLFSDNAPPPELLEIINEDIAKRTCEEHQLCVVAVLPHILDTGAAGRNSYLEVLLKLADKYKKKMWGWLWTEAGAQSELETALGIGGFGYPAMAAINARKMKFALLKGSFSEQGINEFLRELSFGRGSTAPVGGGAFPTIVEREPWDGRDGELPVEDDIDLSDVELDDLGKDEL

COCCCNC(=S)NC1CC2CCC(C1)N2Cc1ccccc1 (stereo not drawn)	FGF22 binding 43 (no result: Yeast UUG start)
CCCC#Cc1ccc([C@@H]2[C@H](CO)N3C(=O)CN(C(=O)c4ccccn4)C[C@@H]23)cc1	none (no result: Yeast UUG start, PDI inh, FGF22 binding)
O=C(NCCc1ccccc1)C(=O)c1c(-c2ccccc2)cc2ccccn12	none (no result: S100A4 MyoIIA, SIRT5 inh, Yeast UUG start, ERp5 inh, FGF22 binding)
O=C(NCCO)C(=O)c1c(-c2ccc(Cl)cc2)cc2ccccn12	FGF22 binding 44 (no result: Yeast UUG start)
CC[n+]1c(/C=C2/C=C(C)CC(C)C2)sc2ccccc21 (stereo not drawn)	none (no result: Yeast UUG start)
CC[n+]1c(C=C2C=C(C)OC(C)=C2)sc2ccccc21	SIRT5 inh 19 (no result: Yeast UUG start)
Cc1sc(NC(=O)Cn2cnnn2)nc1-c1ccc(Cl)cc1	FGF22 binding 43 (no result: Yeast UUG start)
COc1ccc(-c2nc(NC(=O)Cn3cnnn3)sc2C)cc1	none (no result: SIRT5 inh)
O=C(NCC[C@H]1CC[C@H](NS(=O)(=O)c2ccccc2)[C@@H](CO)O1)c1cc(Cl)cc(Cl)c1	S100A4 MyoIIA 76 (no result: PDI inh)
O=C(NCC[C@@H]1CC[C@@H](NS(=O)(=O)c2ccc(Cl)cc2)[C@H](CO)O1)c1ccccc1F	SIRT5 inh 18 (no result: PDI inh)
CC(C)NC(=O)NCC[C@@H]1CC[C@H](NS(=O)(=O)c2ccccc2)[C@@H](CO)O1	none (no result: Yeast UUG start, PDI inh, FGF22 binding)
O=C(NCC[C@@H]1CC[C@H](NS(=O)(=O)c2ccc(Cl)cc2)[C@@H](CO)O1)c1ccccc1F	none (no result: PDI inh)
CCC(=O)N[C@@H]1CC[C@H](CCNC(=O)Nc2ccc(C(F)(F)F)cc2)O[C@@H]1CO	none (no result: PDI inh)
CCC(=O)N[C@@H]1CC[C@H](CCNC(=O)Nc2ccc(C(F)(F)F)cc2)O[C@H]1CO	S100A4 MyoIIA 92 (no result: PDI inh)
CC(C)NC(=O)NCC[C@H]1CC[C@@H](NS(=O)(=O)c2ccc(-c3ccccc3)cc2)[C@H](CO)O1	SIRT5 inh 31 (no result: PDI inh)
CC(=O)n1cc([C@@H]2C=C(C(=O)N3CCN(Cc4ccccc4)CC3)O[C@H](OCCCCO)C2)c2ccccc21	none (no result: PDI inh)
O=C(Nc1ccc(Cl)cc1)N[C@H]1CC[C@H](CCNC(=O)c2ccccc2F)O[C@@H]1CO	S100A4 MyoIIA 81 (no result: PDI inh)
O=C(NCC[C@H]1CC[C@@H](NS(=O)(=O)c2ccccc2F)[C@H](CO)O1)c1ccc(F)cc1	S100A4 MyoIIA 126 (no result: PDI inh)
Cc1ccc(S(=O)(=O)N[C@H]2CC[C@@H](CCNC(=O)Nc3ccc(Cl)cc3)O[C@H]2CO)cc1	SIRT5 inh 103 (no result: PDI inh)
Cc1ccc(S(=O)(=O)N[C@H]2CC[C@H](CCNC(=O)c3ccc4c(c3)OCO4)O[C@H]2CO)cc1	SIRT5 inh 103 (no result: PDI inh)
O=C(Cc1ccccn1)NCC[C@@H]1CC[C@H](NS(=O)(=O)c2ccccc2)[C@H](CO)O1	none (no result: PDI inh)
O=C(NCC[C@H]1CC[C@H](NC(=O)c2cccnc2)[C@H](CO)O1)Nc1ccc(F)cc1	Yeast UUG start 203 (no result: PDI inh)
O=C(Cc1ccccn1)NCC[C@H]1CC[C@H](NS(=O)(=O)c2ccccc2)[C@H](CO)O1	SIRT5 inh 16 (no result: PDI inh)
O=C(Nc1ccccc1F)N[C@@H]1CC[C@H](CCNC(=O)C2CCCCC2)O[C@H]1CO	S100A4 MyoIIA 90 (no result: Yeast UUG start, PDI inh)
COc1ccccc1NC(=O)N(C)C[C@@H]1Oc2ncc(C#CCN(C)C)cc2C(=O)N([C@H](C)CO)C[C@@H]1C	none (no result: PDI inh)
O=C(C[C@@H]1CC[C@H]2[C@@H](COC[C@H](O)CN2Cc2ccc(Oc3ccccc3)cc2)O1)N1CCc2ccccc2C1	none (no result: S100A4 MyoIIA, SIRT5 inh, Yeast UUG start, PDI inh, ERp5 inh)
O=C(CC(F)(F)F)N1C[C@@H]2[C@H](c3ccccc31)[C@H](CO)N2C(=O)C1CCOCC1	none (no result: PDI inh)
O=C1c2ccccc2/C(=C\c2ccc(Br)nc2)N1c1ccccc1	FGF22 binding 43 (no result: SIRT5 inh, Yeast UUG start, PDI inh)
COc1ccc(-c2ccc3c(c2)[C@H]2[C@H](CCN2S(=O)(=O)c2ccc(OC)cc2)[C@H](CO)N3)cc1	none (no result: S100A4 MyoIIA, SIRT5 inh, PDI inh, ERp5 inh)
Cc1ccc(-c2ccc(C3[C@@H]4CN(Cc5cccc(F)c5)C[C@H]3N4)cc2)cc1 (stereo partly drawn)	none (no result: Yeast UUG start, PDI inh, FGF22 binding)
Cc1sc(NC(=O)CCCC(=O)O)c(C(N)=O)c1-c1ccccc1	FGF22 binding 43 (no result: Yeast UUG start)
COC(=O)c1c(NC(=O)CCCC(=O)O)sc(C)c1C	none (no result: S100A4 MyoIIA, SIRT5 inh, ERp5 inh, FGF22 binding)
CNC(=O)c1c(NC(=O)CS(=O)(=O)c2ccccc2)sc(C)c1C	none (no result: Yeast UUG start)
Cc1sc(NC(=O)CS(=O)(=O)c2ccccc2)c(C(N)=O)c1C	FGF22 binding 8.3
C[C@@H]1CN([C@@H](C)CO)C(=O)Cc2cc(NC(=O)Cc3cn(C)c4ccccc34)ccc2O[C@@H]1CN(C)C(=O)Nc1ccc2c(c1)OCO2	none (no result: PDI inh)
Cc1cc[n+](CC(=O)c2ccc3c(c2)OCCO3)cc1	FGF22 binding 44
C[C@@H]1CN([C@@H](C)CO)C(=O)c2cccc(NC(=O)C3CC3)c2O[C@@H]1CN(C)Cc1ccc(C(=O)Nc2ccccc2N)cc1	SIRT5 inh 17 (no result: PDI inh)
C[C@H]1CN([C@@H](C)CO)C(=O)c2cccc(NC(=O)CCCCCC(=O)Nc3ccccc3N)c2O[C@@H]1CN(C)Cc1ccc(Oc2ccccc2)cc1	SIRT5 inh 24 (no result: Yeast UUG start, PDI inh)
C[C@@H]1CN([C@@H](C)CO)C(=O)c2cccc(NC(=O)CCCCCC(=O)Nc3ccccc3N)c2O[C@H]1CN(C)Cc1ccc(-c2ccccc2)cc1	SIRT5 inh 18 (no result: Yeast UUG start, PDI inh)
Cc1noc(C)c1NC(=O)N(C)C[C@H]1Oc2c(NC(=O)CCCCCC(=O)Nc3ccccc3N)cccc2C(=O)N([C@@H](C)CO)C[C@H]1C	S100A4 MyoIIA 76 (no result: Yeast UUG start, PDI inh)
Cc1noc(C)c1NC(=O)N(C)C[C@@H]1Oc2c(NC(=O)CCCCCC(=O)Nc3ccccc3N)cccc2C(=O)N([C@@H](C)CO)C[C@@H]1C	none (no result: SIRT5 inh, Yeast UUG start, PDI inh, ERp5 inh)
COc1ccccc1-c1ccc([C@@H]2[C@H](CO)N(C(=O)C3CC3)C23CN(C(C)=O)C3)cc1	none (no result: Yeast UUG start, PDI inh)
COc1ccc(S(=O)(=O)Nc2ccc3c(c2)C(=O)N([C@H](C)CO)C[C@@H](C)[C@H](CN(C)Cc2ccccc2)OCCCC[C@H](C)O3)cc1	none (no result: S100A4 MyoIIA, SIRT5 inh, PDI inh, ERp5 inh)
O=C(C[C@H]1CC[C@H]2[C@@H](COC[C@H](O)CN2Cc2cccc(C(F)(F)F)c2)O1)NCc1ccncc1	SIRT5 inh 17 (no result: PDI inh)
C[C@H](NC(=O)C[C@@H]1CC[C@H]2[C@@H](COC[C@@H](O)CN2C(=O)Nc2cccc(F)c2)O1)c1ccccc1	SIRT5 inh 19 (no result: PDI inh)
C[C@H](NC(=O)C[C@H]1CC[C@H]2[C@@H](COC[C@H](O)CN2C(=O)Nc2cccc(F)c2)O1)c1ccccc1	none (no result: PDI inh)
